# Source: PubChem BioAssay AID1415 (NMMLSC, 2008)
# By UniProt entry, the sequences of proteins in these tests, tags left out.
# UniProt P09471, whole entry: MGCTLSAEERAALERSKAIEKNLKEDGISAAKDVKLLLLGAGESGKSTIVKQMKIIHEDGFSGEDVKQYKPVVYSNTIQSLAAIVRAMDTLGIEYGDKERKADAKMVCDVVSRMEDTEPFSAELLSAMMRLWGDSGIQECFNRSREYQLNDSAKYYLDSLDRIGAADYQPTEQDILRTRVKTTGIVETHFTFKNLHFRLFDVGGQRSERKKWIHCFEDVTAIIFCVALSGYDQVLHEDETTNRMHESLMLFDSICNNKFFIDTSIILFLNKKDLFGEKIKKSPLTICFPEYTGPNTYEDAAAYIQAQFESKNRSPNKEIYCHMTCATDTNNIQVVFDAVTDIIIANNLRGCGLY
# The list shows a part of the results, in another mix than the full data. Activity calls are given as the source filed them. Cut-off read from the data, not from the text of the source: active = binding response below about 49% or above about 150%; inactive = in between.
# Biological target: Guanine nucleotide-binding protein G(o) subunit alpha (Homo sapiens) (UniProt P09471)
# Test: RGS4-Galphao interaction inhibitors and enhancers – biochemical, multiplexed bead flow cytometry, primary screen (AID 1415);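 note: fluorescent Galphao activated with aluminum fluoride binding bead-coupled RGS4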
# Conditions: at 10 µM, actives lie on both sides
row,SMILES,binding response (% of control)
1,COc1ccccc1OP(C)(=O)Nc1ccc(C)c(C)c1 (stereo unspecified),inactive: 101%
2,Cc1cc(C)cc(OP(C)(=O)Nc2cccc(C(F)(F)F)c2)c1 (stereo unspecified),inactive: 101%
3,CCc1ccc(OP(C)(=O)O)cc1,inactive: 99.8%
4,CP(=O)(Nc1ccccn1)Oc1ccccc1 (stereo unspecified),inactive: 100%
5,COc1ccccc1OP(C)(=O)Nc1ccc(C)cc1C (stereo unspecified),inactive: 97.4%
6,O=[N+]([O-])c1cc([N+](=O)[O-])c(Nc2ccccn2)c([N+](=O)[O-])c1,inactive: 102%
7,Cc1c(NP(C)(=O)Oc2ccc(C(C)C)cc2)c(=O)n(-c2ccccc2)n1C (stereo unspecified),inactive: 98.1%
8,CN(C)CCOC(=O)C(O)(c1ccccc1)C1CCCC1 (stereo unspecified),inactive: 103%
9,COc1ccc(OP(C)(=O)Nc2ccccn2)cc1 (stereo unspecified),inactive: 113%
10,COc1ccccc1OP(C)(=O)Nc1ccc(Br)cc1 (stereo unspecified),inactive: 91.8%
11,CN(C)C(=O)c1c([N+](=O)[O-])cc([N+](=O)[O-])cc1[N+](=O)[O-],inactive: 93.1%
12,CP(=O)(Nc1ccc(Cl)cc1)Oc1ccc(F)cc1 (stereo unspecified),inactive: 101%
13,CC(C)(C)c1ccc(OP(C)(=O)O)cc1,inactive: 98.7%
14,COc1ccccc1OP(C)(=O)Nc1ccccc1Br (stereo unspecified),inactive: 102%
15,CP(=O)(Oc1ccccc1)N1CCOC1=O (stereo unspecified),inactive: 102%
16,CCc1ccc(OP(C)(=O)Nc2cccnc2)cc1 (stereo unspecified),inactive: 99.4%
17,O=C(OCCCN1CCCC1)C(O)(c1ccccc1)C1CCCCC1 (stereo unspecified),inactive: 113%
18,CCN(CC)CC(O)COC(=O)C(O)(c1ccccc1)C1CCCCC1 (stereo unspecified),inactive: 101%
19,COc1ccc(OP(C)(=O)Nc2ccc(Br)cc2)cc1 (stereo unspecified),inactive: 96.8%
20,CP(=O)(OC12CC3CC(CC(C3)C1)C2)OC12CC3CC(CC(C3)C1)C2,inactive: 102%
21,CCOC(=O)c1ccc(NP(C)(=O)Oc2ccc(Cl)cc2)cc1 (stereo unspecified),inactive: 101%
